The experiment has as its target PRMT3 (Homo sapiens, UniProt O60678). Kind of experiment: PRMT3 Biochemical Assay (3H-SAM Flashplate, peptide substrate). Conditions: read-out: Biochemical IC50 PRMT3; 30 min preincubation, room temperature. The text has this:
S-adenosylmethionine (SAM), S-adenosylhomocysteine (SAH), bicine, Tween20, dimethylsulfoxide (DMSO), bovine skin gelatin (BSG), isopropyl-β-D-thiogalactopyranoside (IPTG), and Tris(2-carboxyethyl)phosphine hydrochloride solution (TCEP) were purchased from Sigma-Aldrich at the highest level of purity possible. ^3H-SAM was purchase from American Radiolabeled Chemicals with a specific activity of 80 Ci/mmol. 384-well streptavidin Flashplates were purchased from PerkinElmer.
Peptide containing the classic RMT substrate motif was synthesized with an N-terminal linker-affinity tag motif and a C-terminal amide cap by 21st Century Biochemicals. The peptide was purified by high-performance liquid chromatography (HPLC) to greater than 95% purity and confirmed by liquid chromatography mass spectrometry (LC-MS). The sequence was Biot-Ahx-GGRGGFGGRGGFGGRGGFG-amide (SEQ ID NO.:11).
Full-length human PRMT3 (NM_005788.3) isoform 1 transcript clone was amplified from an HEK 293 cDNA library and subcloned into pGEX-KG (GE Life Sciences). The resulting construct encodes an N-terminal GST tag and a thrombin cleavage sequence ([…] […] […] […]) (SEQ ID NO.: 12) fused directly to Cys 2 of PRMT3.
E. coli (BL21(DE3) Gold, Stratagene) made competent by the CaCl2 method were transformed with the PRMT3 construct and ampicillin selection. […]

Chains of the proteins cited; added tags and fusions are not shown. A line that says so, or that is headed by a name, gives the form on record, which may keep a tag or linker. Residues count along the entry.
UniProt O60678, 2-531 with tags or gaps: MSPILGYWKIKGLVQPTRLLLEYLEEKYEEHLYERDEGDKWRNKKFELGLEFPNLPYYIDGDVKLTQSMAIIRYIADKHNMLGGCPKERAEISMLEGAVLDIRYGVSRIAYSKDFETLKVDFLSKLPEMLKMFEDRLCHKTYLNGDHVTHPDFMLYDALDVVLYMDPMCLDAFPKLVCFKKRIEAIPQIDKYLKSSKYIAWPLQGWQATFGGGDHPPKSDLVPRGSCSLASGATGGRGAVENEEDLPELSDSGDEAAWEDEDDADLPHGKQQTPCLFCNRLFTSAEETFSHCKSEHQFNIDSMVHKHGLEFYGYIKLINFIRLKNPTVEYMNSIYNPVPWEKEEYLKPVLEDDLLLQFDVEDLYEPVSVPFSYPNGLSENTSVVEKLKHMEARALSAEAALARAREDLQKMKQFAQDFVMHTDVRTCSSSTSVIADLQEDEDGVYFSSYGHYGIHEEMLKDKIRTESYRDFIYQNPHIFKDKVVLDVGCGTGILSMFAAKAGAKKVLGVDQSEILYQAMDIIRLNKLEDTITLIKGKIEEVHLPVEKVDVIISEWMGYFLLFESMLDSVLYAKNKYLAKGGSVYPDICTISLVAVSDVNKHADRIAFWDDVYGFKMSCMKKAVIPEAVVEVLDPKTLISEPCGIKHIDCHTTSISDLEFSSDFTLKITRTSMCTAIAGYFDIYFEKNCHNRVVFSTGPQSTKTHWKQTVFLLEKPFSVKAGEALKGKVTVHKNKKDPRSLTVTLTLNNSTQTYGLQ

In general, IC50 refers to the concentration that inhibits the measured activity by half. For the compound `CNCCN(C)Cc1c[nH]nc1-c1csc2ccccc12`, the IC50 lay in the range of 1.01 to 3 µM.

For `CNCCN(C)Cc1c[nH]nc1-c1cncnc1`, the half-maximal inhibitory concentration (IC50) is 3.01 to 10 µM.

The values are drawn from patent US9630961B2, “Arginine methyltransferase inhibitors and uses thereof” (Epizyme, Inc., priority 2013, dated 2017).
